## AlphaSeq binding of Ab-91 heavy chain variants to a spike HR2 peptide

Data: MIT Lincoln Laboratory AlphaSeq set, Engelhart et al. 2022, doi:10.1038/s41597-022-01779-4, as distributed in FLAb.

Target peptide (SARS-CoV-2 spike, HR2 region): PDVDLGDISGINAS

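The parent was found by panning a naive human phage display library on the peptide. Library AAYL51 holds single substitutions and randomly drawn double and triple substitutions in the CDRs. The scFvs were displayed on barcoded MATa yeast, the peptide on MATalpha yeast. The frequency of each diploid, read from paired DNA barcodes, reflects how well the two displayed proteins bind. Read counts were normalised to the haploid input and turned into Kd by a linear fit to BCL2-family pairs of known affinity, for each replicate. The assay was run in three technical replicates.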

Ab-91 is the parent antibody, in scFv form: VL, then the linker GGGGSGGGGSGGGGS, then VH. The light chain is unchanged in all variants.
VL: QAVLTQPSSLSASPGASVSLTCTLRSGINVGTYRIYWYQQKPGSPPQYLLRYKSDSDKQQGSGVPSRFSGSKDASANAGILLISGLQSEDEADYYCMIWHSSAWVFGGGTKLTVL
VH: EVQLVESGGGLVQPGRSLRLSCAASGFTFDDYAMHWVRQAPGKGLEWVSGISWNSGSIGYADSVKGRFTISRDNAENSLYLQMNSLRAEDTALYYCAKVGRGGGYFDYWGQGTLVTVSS

Variants are written as CDR1, CDR2 and CDR3 of the heavy chain (limits as in the source). Parent: GFTFDDYAMH, GISWNSGSIGYADSVK, VGRGGGYFDY. Kd is apparent (estimated from mating counts) and averaged on the log scale over replicates with a signal. Smaller is tighter. Where no diploid with the target was found in any replicate, the entry reads "nd": below detection, most likely a poor binder, though not proof of it.

Kd | seen in | empty controls | CDR-H1 | CDR-H2 | CDR-H3
nd | 0/3 | 0/9 | GFTFDDNAMH | GISWNSGSITYADSVK | VGRIGGYFDY
nd | 0/3 | 1/9 | GFWFDDYAMH | GITWNSGSIGYADSVK | VGRGGGYFDY
nd | 0/3 | 4/9 | GFTFDDYHMH | GISWYSGSIGHADSVK | VGRGGGYFDY
13 µM | 1/3 | 3/9 | PFTLDDYAMH | GISWNSGSIGYADSWK | VGRGGGYFDY
nd | 0/3 | 2/9 | GFTFDDYAMH | GIWWNSGSIGYWDSVK | QGRGGGYFDY
nd | 0/3 | 3/9 | GFTFDDYAMH | GISWNSGSIGYADSNK | VGRGYGKFDY
850 µM | 3/3 | 1/9 | WFTFDDYAMM | GISWNSGSIGYADSVK | EGRGGGYFDY
nd | 0/3 | 1/9 | GFTFDDYCMH | GINWNSGSIGYADSRK | VGRGGGYFDY
nd | 0/3 | 0/9 | GFTFDDNAMT | GISWNEGSIGYADSVK | VGRGGGYFDY
nd | 0/3 | 1/9 | GFTFDDYAMH | SISWNSGSIGYADSVK | VGIEGGYFDY
nd | 0/3 | 0/9 | PFTFDDYAMH | GISWNSGSYGYADSVK | VGRGGGSFDY
410 nM | 3/3 | 0/9 | GFTFDDYAMH | GISWNSGSIGYADRVK | VGRGFGWFDY
940 nM | 1/3 | 1/9 | GFTFDDYAMH | GISWNSGVIGYADCVK | YGRGGGYFDY
200 µM | 3/3 | 6/9 | GFTFDDYAMH | MISWFSGSIGYADSVK | VGRGPGYFDY
4.1 µM | 1/3 | 3/9 | GFTFRDYAMH | GISWNSGSIGYADSVK | VHRGGGYFDY
140 µM | 2/3 | 3/9 | GFTFDDYAME | GISWNSGSIGYADSVK | NGRGGGYFDY
310 µM | 1/3 | 1/9 | GFTFDDYAMH | GISINSGNIGYADYVK | VGRGGGYFDY
950 nM | 3/3 | 1/9 | GFTFDDYAMH | GISNNQGSIGYADSVR | VGRGGGYFDY
nd | 0/3 | 0/9 | GFTPDDYAMH | GISWNSGSSGYADSVK | VWRGGGYFDY
nd | 0/3 | 2/9 | AFTFDDYAMH | GNSWNSGSIGYADSVK | VGRGGGYFDY
nd | 0/3 | 0/9 | NFTFDDYAMH | GISWNSGSIGYADSVK | VGRPGGYFDY
nd | 0/3 | 2/9 | GFTFDHYAQH | GISWNSGSIGYADSVK | VGRGGFYFDY
17 µM | 1/3 | 1/9 | GFTFDDYAMH | GISWNSGSGGHADSVK | VGRGGGYFKY
nd | 0/3 | 2/9 | GFTFDVYAMH | GINWNSGSIGSADSVK | VGRGGGYFDY
88 µM | 1/3 | 3/9 | GFTFQDYAMH | GIFWNSWSIGYADSVK | VGRGGGYFDY
71 µM | 1/3 | 0/9 | GFTFDDYAMH | GISWNCGSIGYHDSVK | VGRGSGYFDY
nd | 0/3 | 1/9 | GFTFDDYAMH | GISWPSGSIGYADSSK | VGRGGHYFDY
nd | 0/3 | 1/9 | GHTFDDRAMH | GISWNSGSKGYADSVK | VGRGGGYFDY
nd | 0/3 | 0/9 | GFTFDDYAMH | GISWPSGSIGYADSVK | VGRGGIYFDY
nd | 0/3 | 0/9 | GFTFDDYAMH | GISWFSGSIGAADSVK | VGRGGGYFDK
19 µM | 1/3 | 3/9 | GFTPDDYAMH | GISWNSGCIGYADSLK | VGRGGGYFDY
nd | 0/3 | 2/9 | GFTFDDYAMH | GISWNYPSIGYADSVK | VGRGGGYGDY
nd | 0/3 | 0/9 | GFTFDLYAMH | DISWNSGSIGYADSVK | VGRGGGYFDY
2.9 µM | 1/3 | 1/9 | GFTFDDYAMH | GISMNSWSIGYADSVK | VGRGGGYCDY
1.6 mM | 1/3 | 1/9 | GFTFDDYMMH | GISWNSGSIGYADSVK | VHRGGGYFDI
55 µM | 2/3 | 1/9 | GFTFDDYAMH | GISGNWGSIGYADSVK | VFRGGGYFDY
5.5 µM | 2/3 | 2/9 | GFTFDDYCMH | GDSWNSGSIGYADSVK | VGRYGGYFDY
240 µM | 3/3 | 4/9 | GFTFDDYAMH | GISWNSGSIGYADSVK | VFRQDGYFDY
13 µM | 2/3 | 0/9 | GFTFDDYAMH | GISWFSGQIGYAISVK | VGRGGGYFDY
59 nM | 3/3 | 1/9 | GFTFDDYAMH | GISWNSYSIGYADSVK | VGDGGGYFDY
nd | 0/3 | 1/9 | GFTFDDYAMH | GISWNSGSIGYALSAK | VGGGGGYFDY
nd | 0/3 | 1/9 | GFTFDDYYMH | GIMWNSGSIGYQDSVK | VGRGGGYFDY
24 µM | 1/3 | 0/9 | GFTFDDYAYH | GISWNSGSIGYVDDVK | VGRGGGYFDY
6.5 µM | 1/3 | 1/9 | GCTFDDYAMH | HISWNSGSIGKADSVK | VGRGGGYFDY
nd | 0/3 | 1/9 | GFTFDDFAMH | GISSNSGSIGYADSVK | VGRGGGTFDY
nd | 0/3 | 0/9 | GFTQDDYAMH | GISWNSGSIGYADSVK | MGRGGGYFDY
nd | 0/3 | 0/9 | GFTFDDYAMH | GISWNSGSIGYADSVK | VIRWGGYFDC
44 nM | 1/3 | 0/9 | GFTFDDYAMH | DISWNSGSIGYAWSVK | VGRGGIYFDY
80 µM | 1/3 | 1/9 | GFTFDDYAMH | SISWNSGSIGYADWVK | VGRGGKYFDY
nd | 0/3 | 4/9 | GFTFDDYAMH | GISWNSGLINYADSVK | VGRGGGYKDY
18 µM | 2/3 | 1/9 | GFTFDDYATH | GISWNSGHIGYADSVK | VGRGGGYFDY
110 µM | 2/3 | 4/9 | GFTADDYAMH | GISWNSDSIGYADSVK | VGRGCGYFDY
240 nM | 3/3 | 3/9 | GFTFDDYAMH | GISGNSGSIGYADSVH | CGRGGGYFDY
120 µM | 3/3 | 3/9 | GFTFDDRAMH | GISWNSGSIGYADSVK | VGSGGGYFDY
370 nM | 3/3 | 1/9 | GFKFDDYAIH | GISCNSGSIGYADSVK | VGRGGGYFDY
nd | 0/3 | 0/9 | GFGFDDTAMH | GISWNVGSIGYADSVK | VGRGGGYFDY

The closing 8 entries, repeated:

CDR-H1 | CDR-H2 | CDR-H3 | Kd | seen in | empty controls
GFTFDDYAMH | SISWNSGSIGYADWVK | VGRGGKYFDY | 80 µM | 1/3 | 1/9
GFTFDDYAMH | GISWNSGLINYADSVK | VGRGGGYKDY | nd | 0/3 | 4/9
GFTFDDYATH | GISWNSGHIGYADSVK | VGRGGGYFDY | 18 µM | 2/3 | 1/9
GFTADDYAMH | GISWNSDSIGYADSVK | VGRGCGYFDY | 110 µM | 2/3 | 4/9
GFTFDDYAMH | GISGNSGSIGYADSVH | CGRGGGYFDY | 240 nM | 3/3 | 3/9
GFTFDDRAMH | GISWNSGSIGYADSVK | VGSGGGYFDY | 120 µM | 3/3 | 3/9
GFKFDDYAIH | GISCNSGSIGYADSVK | VGRGGGYFDY | 370 nM | 3/3 | 1/9
GFGFDDTAMH | GISWNVGSIGYADSVK | VGRGGGYFDY | nd | 0/3 | 0/9

Nonspecific signal, from three strains lacking the peptide, appeared in 21% of pairings of library AAYL51, centred on 34 µM (5% of these signals below 1.8 µM); values are not corrected for it. Also given: how often the same scFv was detected with the empty control strains. Parent in this assay: reference entry 72 nM, copy in this library 7.5 nM.